US20260124309A1, “STAT6 DEGRADERS AND USES THEREOF” (Kymera Therapeutics, Inc., priority 2023, published 2026)

By UniProt entry, the sequences of proteins in these tests, tags left out. Residues count along the entry.
UniProt P42226, whole entry: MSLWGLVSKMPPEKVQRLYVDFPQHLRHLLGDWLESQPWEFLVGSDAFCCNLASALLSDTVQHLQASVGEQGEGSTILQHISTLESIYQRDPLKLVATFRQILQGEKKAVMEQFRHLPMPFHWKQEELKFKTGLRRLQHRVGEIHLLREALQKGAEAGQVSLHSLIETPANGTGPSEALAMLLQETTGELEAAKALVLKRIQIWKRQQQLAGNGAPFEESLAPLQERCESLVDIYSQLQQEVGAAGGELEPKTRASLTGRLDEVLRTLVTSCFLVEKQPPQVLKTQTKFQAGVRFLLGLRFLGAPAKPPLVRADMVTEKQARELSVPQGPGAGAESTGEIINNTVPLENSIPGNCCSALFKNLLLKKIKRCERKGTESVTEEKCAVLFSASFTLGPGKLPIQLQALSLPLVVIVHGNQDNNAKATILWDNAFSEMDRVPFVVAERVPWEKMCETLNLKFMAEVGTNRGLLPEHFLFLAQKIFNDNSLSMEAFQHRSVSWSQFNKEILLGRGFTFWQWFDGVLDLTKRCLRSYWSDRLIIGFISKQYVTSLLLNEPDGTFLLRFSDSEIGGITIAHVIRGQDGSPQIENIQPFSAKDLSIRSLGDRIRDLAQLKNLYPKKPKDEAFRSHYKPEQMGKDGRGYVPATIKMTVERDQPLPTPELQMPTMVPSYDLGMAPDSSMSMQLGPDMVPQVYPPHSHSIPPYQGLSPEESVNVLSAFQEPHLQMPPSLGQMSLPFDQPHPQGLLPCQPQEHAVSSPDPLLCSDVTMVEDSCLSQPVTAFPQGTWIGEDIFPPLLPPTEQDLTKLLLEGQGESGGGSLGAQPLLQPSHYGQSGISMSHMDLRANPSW
UniProt P42226, 123-632 limits assumed: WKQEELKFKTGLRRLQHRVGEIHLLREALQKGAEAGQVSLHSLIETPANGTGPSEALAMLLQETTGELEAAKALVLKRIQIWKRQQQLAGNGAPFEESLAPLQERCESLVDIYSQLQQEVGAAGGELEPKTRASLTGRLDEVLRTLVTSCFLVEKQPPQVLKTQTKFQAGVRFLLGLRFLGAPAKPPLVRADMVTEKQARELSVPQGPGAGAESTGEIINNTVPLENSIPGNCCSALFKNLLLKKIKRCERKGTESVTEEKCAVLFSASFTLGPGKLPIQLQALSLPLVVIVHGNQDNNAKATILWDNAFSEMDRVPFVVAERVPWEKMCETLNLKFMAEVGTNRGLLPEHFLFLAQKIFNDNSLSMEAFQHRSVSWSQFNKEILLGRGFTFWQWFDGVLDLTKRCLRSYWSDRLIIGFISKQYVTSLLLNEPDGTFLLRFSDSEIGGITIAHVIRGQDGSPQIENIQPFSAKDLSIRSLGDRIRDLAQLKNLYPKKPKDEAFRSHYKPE

Tests used:
[1] = target: biotinylated truncated STAT6 (123-632)-avi (Homo sapiens, UniProt P42226); assay: STAT6 HTRF binding assay; settings: read-out: STAT6 HTRF: Average IC50, 0.15 nM biotinylated truncated STAT6 (123-632)-avi, 20 nM fluorescein-labeled probe
Description: HTRF binding assays were performed using 0.15 nM biotinylated truncated STAT6 (123-632)-avi purified from E. coli, 1× Streptavidin-terbium (CisBio) prepared by mixing SA-Tb in PPI detection buffer (CisBio), 20 nM proprietary fluorescein-labeled probe, and test compounds in assay buffer consisting of 50 mM HEPES-Na pH 7.5, 100 mM NaCl, 1 mM EDTA, 2 mM DTT, 0.1% Tween-20 with a final volume of 20 uL. Compound stocks were dissolved at 10 mM in 100% DMSO and 11 point titration with 3 fold serial dilution was performed in white, opaque 384 well microplates. Reaction plates were incubated at room temperature for 30 minutes. Plates were centrifuged at low rpm for 5 mins, and the ratio of fluorescence intensities were measured at emission wavelengths for fluorescein acceptor (520 nm) and terbium donor (495 nm) on Envision Plate reader. % Inhibition was calculated from the 520/495 ratio generated by using proprietary positive control compound for 100% inhibition and DMSO only reactions for 0% inhibition. Data was processed and dose response curves were generated using GraphPad Prism to determine the concentration required for inhibiting 50% of the HTRF signal (IC50).
The letter codes for IC50 (μM) include: A (<0.1 μM); B (0.1-1 μM); C (>1-10 μM); D (>10-100 μM); E (>100 μM); and F (not tested).

STAT6 = STAT6 (Homo sapiens, UniProt P42226); assay: STAT6 MSD degradation in A549 cells; settings: for DC50: read-out: STAT6 MSD degradation DC50 (nM) 24 h
Description: Degradation of STAT6 in cells was quantitatively measured using Meso Scale Discovery (MSD) technology. A549 cells were seeded in 96-well plates with a density of 1.5×10e4 to 5×10e5 cells per well in 100 μl fresh media. Compounds were then added to the assay plates with a final top concentration of up to 10 uM in a 1:3 dilution series with total of 9 doses. The assay plates were then incubated for 4 to 24 hours at 37° C. under 5% CO2. The assay plates were then centrifuged for 5 minutes and the cell pellets were treated with 100 μl/well RIPA lysis buffer (Boston Bioproducts, BP-115D) with protease and phosphatase inhibitors (Roche, 05892791001 and 04906837001). To prepare the MSD assay plates (MSD, L15XA), the plates were coated with the capture antibody (Abnova, H00006778) in PBS, at 40 μl/well. The plates were then incubated overnight at 4° C., washed 1 time with 150 μl/well TBST buffer (Cell Signaling Technology, #9997S) and blocked with 150 μl/well blocking buffer (MSD, R93BA-4). Cell lysates were then added to MSD assay plates and the plates were incubated at room temperature for 1 hour. The plates were then washed 3 times with 150 μl/well TBST buffer and 25 μl/well primary detection antibody (Cell Signaling Technology, #5397S). The assay plates were then incubated at room temperature for 1 hour, washed 3 times with 150 μl/well TBST buffer, and 25 μl/well secondary detection antibody, SULFO-TAG anti-rabbit antibody (MSD, R32AB-1) were added. The assay plates were then incubated at room temperature for 1 hour, washed 3 times with 150 μl/well TBST buffer, and 150 μl/well MSD reading buffer (MSD, R92TC-2) were added. The plates were then analyzed by an MSD reader. The data was analyzed by GraphPad Prism and the dose dependent STAT6 degradation was fit using the four-parameter inhibitor vs. response nonlinear regression.
The letter codes for DC50 (nM) include: A (<1 nM); B (1-10 nM); C (>10-100 nM); D (>100-1000 nM); E (>1000 nM); and F (not tested). The letter codes for Dmax (oo) include: A (>90%); B (>70-90%); C (>50-70%); D ([…]); and F (not tested).

| SMILES | IC50 ([1]; HTRF binding) [nM] | STAT6 MSD degradation Dmax % 24 h (STAT6) | DC50 (STAT6) [nM] | IC50 ([1]; 30 minutes at room temperature) [nM] |
| --- | --- | --- | --- | --- |
| COc1cc(N2CCC(c3ccc(-c4cc(C5=CCCN(C(=O)CCn6cccn6)C5)c(F)c5[nH]c(C(=O)N(C)C)cc45)c(OC(F)(F)F)c3)CC2)c(F)cc1NC1CCC(=O)NC1=O (stereo not drawn) | < 100 | B (B (>70-90%)) | 1 to 10 | – |
| Cc1nn(C2CCC(=O)NC2=O)c2ccc(F)c(CCN3CCN(c4cc(Cl)c(-c5cc([C@H]6CCCN(C(=O)CCn7cccn7)C6)c(F)c6[nH]c(C(=O)N(C)C)cc56)cc4F)CC3)c12 (stereo partly drawn) | 100 to 1000 | A (A (>90%)) | < 1 | – |
| COc1cc(C2CCN(c3cc(Cl)c(-c4cc(C5=CCCN(C(=O)CCn6cccn6)C5)c(F)c5[nH]c(C(=O)N(C)C)cc45)cc3F)CC2)c(F)cc1NC1CCC(=O)NC1=O (stereo not drawn) | 100 to 1000 | A (A (>90%)) | 1 to 10 | – |
| COc1cc([C@H]2CC[C@H](c3ccc(-c4cc(C5=CCCN(C(=O)CCn6cccn6)C5)c(F)c5[nH]c(C(=O)N(C)C)cc45)cc3)CC2)c(F)cc1NC1CCC(=O)NC1=O (relative stereo) | 1000 to 10000 | B (B (>70-90%)) | 1 to 10 | – |
| CN(C)C(=O)c1cc2c(-c3ccc(C4CCN(c5ccc(NC6CCC(=O)NC6=O)cc5F)CC4)cc3)cc(C3=CCCN(C(=O)CCn4cccn4)C3)c(F)c2[nH]1 (stereo not drawn) | < 100 | B (B (>70-90%)) | 1 to 10 | – |
| CC(=O)N1CCC=C(c2cc(-c3ccc(C4CCN(c5cccc6c5n(C)c(=O)n6C5CCC(=O)NC5=O)CC4)cc3)c3cc(C(=O)N(C)C)[nH]c3c2F)C1 (stereo not drawn) | 1000 to 10000 | A (A (>90%)) | 1 to 10 | – |
| COc1cc(N2CCC(c3ccc(-c4cc(C5=CCCN(C(=O)CCn6cccn6)C5)c(F)c5[nH]c(C(=O)N(C)C)cc45)cc3)CC2)c(F)cc1NC1CCC(=O)NC1=O (stereo not drawn) | < 100 | A (A (>90%)) | 1 to 10 | – |
| CC(C)C(=O)N1CCC=C(c2cc(-c3ccc(N4CCN(C5CCN(c6cccc7c6n(C)c(=O)n7C6CCC(=O)NC6=O)CC5)CC4)cc3)c3cc(C(=O)N(C)C)[nH]c3c2F)C1 (stereo not drawn) | 100 to 1000 | B (B (>70-90%)) | 1 to 10 | – |
| COc1cc(N2CCN(c3cc(F)c(-c4cc(C5=CCCN(C(=O)CCn6ccnn6)C5)c(F)c5[nH]ncc45)cc3F)CC2)c(F)cc1NC1CCC(=O)NC1=O (stereo not drawn) | 1000 to 10000 | B (B (>70-90%)) | 10 to 100 | – |
| COc1cc(N2CCN(CCc3ccc(C4CCC(=O)NC4=O)c(Cl)c3)CC2)ccc1-c1cc(C2CCCN(C(C)=O)C2)c(F)c2[nH]c(C(=O)N(C)C)cc12 (stereo not drawn) | – | B (B (>70-90%)) | 10 to 100 | 100 to 1000 |
| COc1cc(N2CCN(c3cc(F)c(-c4cc(C5=CCCN(C(=O)CCn6ccnn6)C5)c(F)c5[nH]c(C(=O)N(C)C)cc45)cc3F)CC2)c(F)cc1NC1CCC(=O)NC1=O (stereo not drawn) | < 100 | B (B (>70-90%)) | < 1 | – |
| Cc1nn(C2CCC(=O)NC2=O)c2cccc(CCN3CCN(c4ccc(-c5cc(C6=CCCN(C(=O)CCn7cccn7)C6)c(F)c6sc(C(=O)N(C)C)cc56)cc4)CC3)c12 (stereo not drawn) | 100 to 1000 | A (A (>90%)) | 1 to 10 | – |
| CN(C)C(=O)c1cc2c(-c3ccc(C4CCN(c5c(F)cc(C6CCC(=O)NC6=O)cc5F)CC4)cc3)cc([C@H]3CCCN(C(=O)CCn4cccn4)C3)c(F)c2[nH]1 (stereo partly drawn) | 1000 to 10000 | A (A (>90%)) | 1 to 10 | – |
| CN(C)C(=O)c1cc2c(-c3ccc(C4CCN(c5ccc(C6CCC(=O)NC6=O)cc5F)CC4)cc3)cc([C@H]3CCCN(C(=O)CCn4cccn4)C3)c(F)c2[nH]1 (stereo partly drawn) | 100 to 1000 | A (A (>90%)) | 1 to 10 | – |
| COc1cc([C@H]2CC[C@H](c3ccc(-c4cc(C5=CCCN(C(=O)CCn6ccnn6)C5)c(F)c5[nH]c(C(=O)N(C)C)cc45)cc3)CC2)c(F)cc1NC1CCC(=O)NC1=O (stereo partly drawn) | 100 to 1000 | A (A (>90%)) | 1 to 10 | – |
| C[C@@H](Cn1ccnn1)C(=O)N1CCC=C(c2cc(-c3ccc(C4CCN(c5ccc(NC6CCC(=O)NC6=O)cc5F)CC4)cc3)c3cc(C(=O)N(C)C)[nH]c3c2F)C1 (stereo partly drawn) | 100 to 1000 | B (B (>70-90%)) | 1 to 10 | – |
| CC(=O)N1CCC=C(c2cc(-c3cc(F)c(C4CCN(c5cccc6c5n(C)c(=O)n6C5CCC(=O)NC5=O)CC4)cc3C)c3cc(C(=O)N(C)C)[nH]c3c2F)C1 (stereo not drawn) | 1000 to 10000 | A (A (>90%)) | < 1 | – |
| Cn1c(=O)n(C2CCC(=O)NC2=O)c2cccc(C3CC(N4CCN(c5ccc(-c6cc([C@H]7CCCN(C(=O)CCn8cccn8)C7)c(F)c7[nH]c(C(=O)N8CCC8)cc67)cc5)CC4)C3)c21 (stereo partly drawn) | 100 to 1000 | A (A (>90%)) | < 1 | – |
| CN(C)C(=O)c1cc2c(-c3ccc(C4CCN(c5ccc(OC6CCC(=O)NC6=O)cc5F)CC4)cc3)cc(C3=CCCN(C(=O)CCn4ccnn4)C3)c(F)c2[nH]1 (stereo not drawn) | < 100 | A (A (>90%)) | < 1 | – |
| Cc1cc(C2CCN(c3cccc4c3n(C)c(=O)n4C3CCC(=O)NC3=O)CC2)ccc1-c1cc(C2=CCCN(C(=O)CCn3ccnn3)C2)c(F)c2[nH]ccc12 (stereo not drawn) | 10000 to 100000 | B (B (>70-90%)) | 1 to 10 | – |
| Cc1cc(CCC2CCN(c3ccc(C4CCC(=O)NC4=O)cc3F)CC2)ccc1-c1cc(C2=CCCN(C(=O)CCn3ccnn3)C2)c(F)c2[nH]c(C(=O)N(C)C)cc12 (stereo not drawn) | < 100 | A (A (>90%)) | 1 to 10 | – |
| COc1cc(N2CCN(c3ccc(-c4cc(C5=CCCN(C(=O)CCn6cccn6)C5)c(F)c5[nH]c(C(=O)N(C)C)cc45)c(F)c3)CC2)c(F)cc1NC1CCC(=O)NC1=O (stereo not drawn) | < 100 | B (B (>70-90%)) | 1 to 10 | – |
| CN(C)C(=O)c1cc2c(-c3ccc(N4CCN(c5ccc(C6CCC(=O)NC6=O)cc5F)CC4)cc3)cc(C3=CCCN(C(=O)CCn4cccn4)C3)c(F)c2[nH]1 (stereo not drawn) | < 100 | A (A (>90%)) | < 1 | – |
| CC(=O)N1CCC=C(c2cc(-c3ccc(N4CCN(CCc5cccc6c5n(C)c(=O)n6C5CCC(=O)NC5=O)CC4)cc3C(F)(F)F)c3cc(C(=O)N(C)C)[nH]c3c2F)C1 (stereo not drawn) | 100 to 1000 | A (A (>90%)) | < 1 | – |

Like-named read-outs stand apart in the source and are kept apart here.
